# Yeast mating assay 2: variants of the scFv Ab-95

Antigen: PDVDLGDISGINAS, a 14-residue peptide of the SARS-CoV-2 spike HR2 region.

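In library AAYL52, one, two or three CDR residues were substituted; doubles and triples were drawn at random. AlphaSeq pools MATa yeast showing the antibodies with MATalpha yeast showing the peptide. Mating (16 h, 30 °C) was followed by selection of diploids and sequencing of their barcodes. Read counts were normalised to the haploid input and turned into Kd by a linear fit to BCL2-family pairs of known affinity, for each replicate. There are three technical replicates.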

Parent: Ab-95, a human scFv built as VH, a 15-residue (Gly4Ser)3 linker, VL. Only the CDRs of the light chain vary.
VH: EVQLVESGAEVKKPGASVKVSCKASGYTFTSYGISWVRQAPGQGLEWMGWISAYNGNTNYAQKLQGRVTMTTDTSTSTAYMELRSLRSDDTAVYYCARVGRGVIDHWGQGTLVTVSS
VL: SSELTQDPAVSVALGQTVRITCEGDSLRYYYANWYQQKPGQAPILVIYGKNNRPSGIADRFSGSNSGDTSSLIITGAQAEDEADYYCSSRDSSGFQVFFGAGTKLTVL

The parent's light chain CDRs are EGDSLRYYYAN, GKNNRPS, SSRDSSGFQVF; each variant's own CDRs replace them letter for letter. Numbers give log10(Kd / nM), so 0 is 1 nM and 3 is 1 µM. Smaller is tighter. A pair that was not seen in that replicate is written "ND"; this usually means weak binding, but a binder can also be missed. For reference, the parent read 2.31 as the reference entry and 2.25 as a member of this library. Three control strains display no target. For library AAYL52, 28% of the pairings with them gave a signal, with a median of 3.91 and one signal in twenty below 2.90, so weak values seen in few replicates may be background. The control count says in how many pairings with the empty strains this scFv gave a signal, with their mean in brackets.

CDR-L1,CDR-L2,CDR-L3,"replicates, log10 nM",control signals
EGRSLRYYYAN,GKNQRPS,SSRDSSGFEVF,2.93 3.05 2.80,2 of 9 (4.10)
EGDSLRFYYAN,GKNERPS,QSRDSSGFQVF,ND ND ND,0 of 9
EGDSLRYLTAN,GKNNRPS,SSRHSSGFQVF,3.26 2.93 4.13,1 of 9 (3.19)
EGDSLRYYYAN,GKNNRPS,SSRDSGGEQVV,ND ND ND,0 of 9
EGDYLGYYYAN,GKNNRPS,GSRDSSGFQVF,4.11 ND 3.93,5 of 9 (4.36)
EGDSLRYYYAN,GKNNRPS,SSRDSKGTQVF,2.31 2.02 1.95,4 of 9 (4.35)
EGDSLRMYYAN,GKNNRPR,SSRDSSGFQVC,3.63 5.10 ND,1 of 9 (4.24)
EPDSLRYYYAN,GKNNYPS,SSKDSSGFQVF,ND ND ND,3 of 9 (3.40)
EGDSLRYYQAN,GKNNRPS,FSPDSSGFQVF,2.31 2.13 1.70,4 of 9 (4.13)
LGDSLRYWYAR,GKNNRPS,SSRDSSGFQVF,ND 4.75 ND,2 of 9 (4.18)
EGDSQRYRYAN,GKNNRPS,SSVDSSGFQVF,3.27 3.25 3.17,5 of 9 (3.91)
EGDSLRYLYAN,GKNNRPG,SSRDSSMFQVF,3.24 2.92 3.32,4 of 9 (4.03)
EGDSLVEYYAN,GKNNRPS,SSRDSSGFCVF,ND ND 4.89,5 of 9 (4.22)
EGDSLRYYYAN,GKNSRPK,SSRDSSGFQVR,2.58 2.38 2.24,4 of 9 (3.54)
EGDSLRYYYAH,GKKNRPS,SGRDSSGFQVF,5.20 4.02 ND,3 of 9 (3.83)
EGDSLRYYYAN,HKNNRPS,SSRMNSGFQVF,ND ND ND,2 of 9 (3.76)
EGDSLRYYYWN,GCNNRPS,SSHDSSGFQVF,3.83 3.65 ND,0 of 9
EGDSLRYYYAN,GKNNRPH,SSRDSSYFQSF,2.80 2.79 3.45,7 of 9 (4.01)
RGDSFRYYYAN,GKNNRPS,SSLDSSGFQVF,3.08 3.02 ND,5 of 9 (3.76)
EGDSLRYYYAN,GKLNRPA,SSIDSSGFQVF,4.69 2.94 2.47,4 of 9 (3.36)
EQDSLRYYYAI,GKNNRPS,SSRCSSGFQVF,ND 3.28 ND,3 of 9 (4.68)
YGDSLRYYYAN,GKNNRPS,SSRDWHGFQVF,3.03 2.31 2.57,4 of 9 (4.18)
EGDDLRYYYAN,GKNNRPS,SSRDSSYFQQF,2.91 3.19 ND,2 of 9 (4.01)
EGDSLRYYYAN,GKNNFPS,ISRDSSGFQTF,ND ND 3.58,1 of 9 (3.76)
WGDSLRYYYAN,GRNNRPS,SSRDSSGFRVF,4.85 3.29 3.99,5 of 9 (4.28)
AGDSTRYYYAN,GKNNMPS,SSRDSSGFQVF,3.12 3.46 3.35,2 of 9 (4.56)
EGISLRAYYAN,GKNNRPS,SSRDSIGFQVF,4.11 ND ND,5 of 9 (3.88)
EVFSLRYYYAN,GKNNRPW,SSRDSSGFQVF,3.23 3.38 3.44,4 of 9 (4.35)
EPDSLRYYYAN,GENNRPS,SSIDSSGFQVF,ND 3.63 ND,1 of 9 (4.17)
EGDSDRYYYAN,GKNNRPS,SYRDSSGFWVF,ND ND ND,3 of 9 (3.77)
EGDSLRYYYAN,GFNNRVS,SSPDSSGFQVF,4.79 ND 4.33,3 of 9 (4.27)
EGKSLRYYYAN,GKNNRPS,SSMDSSGFFVF,2.03 2.19 2.62,3 of 9 (3.89)
VGDSLRYYYAN,GKNWRPS,SSWDSSGFQVF,3.40 2.77 2.53,3 of 9 (4.42)
EGDSLRYYYAN,GKNNRPD,ESRDSSGFQVF,2.55 2.79 1.97,2 of 9 (4.48)
EGNSLEYYYAN,GKNNRPS,SSRDSSLFQVF,2.94 2.48 2.91,2 of 9 (3.96)
EGDSPRYYAAN,GKNNRPS,SSRDSSGLQVF,3.63 3.85 3.65,3 of 9 (3.94)
EGDKLRYRYAL,GKNNRPS,SSRDSSGFQVF,ND ND 3.19,1 of 9 (4.11)
EGDALFYYYAN,GKNNRPS,SSRDSSGFQVL,2.70 3.13 2.69,2 of 9 (3.67)
EGDSLKYYYAN,GKNKRHS,SSRDSSGFQVF,3.21 2.70 2.70,2 of 9 (3.69)

The opening 3 entries, copied out:

{"CDR-L1": "EGRSLRYYYAN", "CDR-L2": "GKNQRPS", "CDR-L3": "SSRDSSGFEVF", "replicates, log10 nM": "2.93 3.05 2.80", "control signals": "2 of 9 (4.10)"}
{"CDR-L1": "EGDSLRFYYAN", "CDR-L2": "GKNERPS", "CDR-L3": "QSRDSSGFQVF", "replicates, log10 nM": "ND ND ND", "control signals": "0 of 9"}
{"CDR-L1": "EGDSLRYLTAN", "CDR-L2": "GKNNRPS", "CDR-L3": "SSRHSSGFQVF", "replicates, log10 nM": "3.26 2.93 4.13", "control signals": "1 of 9 (3.19)"}

Reference: Engelhart et al. 2022, doi:10.1038/s41597-022-01779-4. File: FLAb, binding data.